Results from patent US20180340012A1, “METHODS AND CO[…] TO IMPROVING PROPERTIES OF PHARMACOLOGICAL AGENTS TARGETING NERVOUS SYSTEM” (University of Utah Research Foundation, priority 2006, published 2018).
Where two headings read alike, the source gives them in different places.

By UniProt entry, the sequences of proteins in these tests, tags left out. Where a name states a change or a piece, a line headed by the entry shows the natural chain unless it says otherwise.
UniProt P49146, whole entry: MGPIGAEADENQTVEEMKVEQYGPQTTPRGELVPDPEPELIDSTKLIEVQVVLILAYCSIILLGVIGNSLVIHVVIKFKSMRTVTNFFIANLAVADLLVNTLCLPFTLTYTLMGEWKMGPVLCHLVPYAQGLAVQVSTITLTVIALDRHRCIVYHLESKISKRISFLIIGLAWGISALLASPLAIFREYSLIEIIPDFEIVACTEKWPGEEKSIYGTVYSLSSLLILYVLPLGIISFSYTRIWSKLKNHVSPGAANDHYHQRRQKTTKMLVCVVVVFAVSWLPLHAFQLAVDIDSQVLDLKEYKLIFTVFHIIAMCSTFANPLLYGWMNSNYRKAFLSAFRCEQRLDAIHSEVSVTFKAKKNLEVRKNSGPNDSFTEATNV
UniProt P47211: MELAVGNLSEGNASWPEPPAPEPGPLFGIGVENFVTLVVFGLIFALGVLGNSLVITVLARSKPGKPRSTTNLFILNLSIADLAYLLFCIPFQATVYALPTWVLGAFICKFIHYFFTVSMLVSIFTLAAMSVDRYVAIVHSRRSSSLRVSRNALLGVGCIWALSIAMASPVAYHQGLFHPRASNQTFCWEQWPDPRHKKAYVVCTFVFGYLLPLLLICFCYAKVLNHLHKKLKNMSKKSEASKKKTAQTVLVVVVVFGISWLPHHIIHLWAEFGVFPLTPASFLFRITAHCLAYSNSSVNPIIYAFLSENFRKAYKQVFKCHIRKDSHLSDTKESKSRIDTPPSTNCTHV

Experiments:
Y2 receptor subtype = Y2 receptor subtype (Homo sapiens, UniProt P49146); details: read-out: IC50 against Y2 receptor subtype; cited from earlier work
hGalR1 = hGalR1 (Homo sapiens, UniProt P47211); assay: Radioligand binding study, hGalR1 (MDS-PS)
Procedure: (§1) Affinity of NAX 5055 for human hGalR1 and hGalR2 was confirmed in a preliminary radioligand binding study that was conducted by MDS-PS contract screening company (report#1077561, reference: MDSPS 231510 and 231600). In this study, hGalR1 was expressed in HEK-293 cells, whereas hGalR2 was expressed in CHO-K1 cells and human [^125I]galanin was used as the radioligand.

hGalR2 = target: T1, hGalR2 (Homo sapiens, UniProt O43603); assay: Radioligand binding study, hGalR2 (MDS-PS)
T1 sequence (O43603 1-387): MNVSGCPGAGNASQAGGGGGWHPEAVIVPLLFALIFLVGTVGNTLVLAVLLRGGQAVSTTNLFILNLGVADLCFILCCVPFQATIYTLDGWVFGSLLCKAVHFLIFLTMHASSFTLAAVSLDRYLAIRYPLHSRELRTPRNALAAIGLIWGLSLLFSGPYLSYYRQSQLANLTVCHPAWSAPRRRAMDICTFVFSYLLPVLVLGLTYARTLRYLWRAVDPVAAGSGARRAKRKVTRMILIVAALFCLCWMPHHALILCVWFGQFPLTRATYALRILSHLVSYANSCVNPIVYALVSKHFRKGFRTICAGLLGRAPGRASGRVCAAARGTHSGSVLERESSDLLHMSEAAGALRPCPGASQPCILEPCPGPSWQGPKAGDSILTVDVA
Procedure: as §1

[1] = Toxicity (motor impairment) noted in the SAR screen; assay type: in vivo, mice; details: 4 mg/kg, i.p.
Text: Minimal toxicity will be identified in mice by the rotarod procedure (Dunham and Miya, 1957). When a mouse is placed on a 1-inch knurled rod that rotates at a speed of 6 r.p.m., the animal can maintain its equilibrium for long periods of time. The animal is considered toxic if it falls off this rotating rod three times during a 1-minute period.
Structure-Activity Relationships of the NAX 5055 analog. SAR studies have been carried out in an effort to better understand structural determinants of its activity following systemic administration. […] Presence of the Lys-palm residue was insufficient to produce any observable anticonvulsant activity.

Substance | IC50 (Y2 receptor subtype) | Ki (hGalR1; Table 2, own value for NAX 5055 (cf. b414), read-out: affinity toward galanin receptors, GalR1) | Kd (hGalR1; Table 18, Analog 5055, own value, read-out: Affinity, KD hGalR1) | Ki (hGalR1; hGalR1 expressed in HEK-293 cells, human [125I]galanin radioligand, preliminary study, read-out: estimated Ki for hGalR1) | Ki (hGalR2; Table 2, own value for NAX 5055 (cf. b414), read-out: affinity toward galanin receptors, GalR2) | Kd (hGalR2; Table 18, Analog 5055, own value, read-out: Affinity, KD hGalR2) | Ki (hGalR2; hGalR2 expressed in CHO-K1 cells, human [125I]galanin radioligand, preliminary study, read-out: estimated Ki for hGalR2) | toxicity (motor impairment) [1]
Ac-[Ahx5-24,K4(99mTc(CO)3-PADA),A26]-NPY | 1 nM |  |  |  |  |  |  | 
Sar-Trp-Thr-Leu-Asn-Ser-Ala-Gly-Tyr-Leu-Leu-Gly-Pro-Lys-Lys-(Lys-palm)-Lys-NH2 [NAX 5055] |  | ~9 nM | ~9 nM | 9 nM | ~6 nM | ~6 nM | 6 nM | not observed
